Our source for the Ki and IC50 values is publication PMC5807507, “Crystal structures of a bacterial dipeptidyl peptidase IV reveal a novel substrate recognition mechanism distinct from that of mammalian orthologues” (Scientific Reports, 2018).

Chains of the proteins cited; added tags and fusions are not shown. Residues count along the entry.
UniProt P27487, 39-766: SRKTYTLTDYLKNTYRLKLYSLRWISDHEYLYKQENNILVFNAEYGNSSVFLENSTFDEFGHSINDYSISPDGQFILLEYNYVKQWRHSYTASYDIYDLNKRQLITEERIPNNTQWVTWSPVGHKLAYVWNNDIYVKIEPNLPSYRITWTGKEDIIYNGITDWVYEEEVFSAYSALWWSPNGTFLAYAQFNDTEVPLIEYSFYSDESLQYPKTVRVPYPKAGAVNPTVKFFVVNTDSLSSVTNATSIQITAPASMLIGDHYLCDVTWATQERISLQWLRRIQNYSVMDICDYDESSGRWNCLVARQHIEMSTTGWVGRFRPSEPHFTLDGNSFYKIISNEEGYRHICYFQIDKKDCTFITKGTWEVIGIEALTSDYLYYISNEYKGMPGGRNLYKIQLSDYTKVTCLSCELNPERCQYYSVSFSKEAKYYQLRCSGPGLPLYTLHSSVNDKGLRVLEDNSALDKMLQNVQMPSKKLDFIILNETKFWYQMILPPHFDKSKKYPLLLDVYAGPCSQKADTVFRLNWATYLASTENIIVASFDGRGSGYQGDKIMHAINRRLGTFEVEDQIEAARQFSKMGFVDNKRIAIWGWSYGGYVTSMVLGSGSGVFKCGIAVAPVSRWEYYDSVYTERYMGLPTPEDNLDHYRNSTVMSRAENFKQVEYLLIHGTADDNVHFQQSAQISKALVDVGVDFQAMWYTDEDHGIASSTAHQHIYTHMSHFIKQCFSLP

In test [1] the target is T1, Human DPP IV (Homo sapiens, UniProt P27487).
T1 construct: gene DPP4
Put plainly: Gly-Pro-MCA fluorescence hydrolysis inhibition; Ki by Cheng-Prusoff.

Test [2] has as its target T1, Human DPP IV. The test is described as follows: biochemical.

The structures appear in SMILES notation.

As to `Cc1cc2ncc(C(=O)NCC(C)(C)NCC(=O)N3CCC[C@H]3C#N)cn2n1` [Anagliptin], the Ki in test [1] worked out at 10.5 ± 0.6 nM. The compound further came in with an IC50 in test [2] of 38.6 ± 2.2 nM.

Broadly, the Ki is a measure of affinity in units of concentration, obtained from inhibition or displacement. The IC50 is the concentration that inhibits the measured activity by half. A low value points to higher potency.
